Measurements: patent publication US10844057B2, “Process for preparing JAK inhibitors and intermediates thereof” (priority 2018, dated 2020)

How the values were obtained:
[1] = system: TSLP-evoked TARC release in human peripheral blood mononuclear cells; experiment: Inhibition of TSLP-evoked TARC release in human peripheral blood mononuclear cells; format: cell-based; details: PBMC, 48 h, read-out: pIC50 ± st. dev., inhibition of TSLP-evoked TARC release (converted)
Text: Assay 4: Inhibition of TSLP-Evoked TARC Release in Human Peripheral Blood Mononuclear Cells
Thymic stromal lymphopoietin (TSLP) and thymus and activation-regulated chemokine (TARC) are overexpressed in asthmatic airways, and correlate with disease severity. In the lungs, TSLP may be released by bronchial epithelial cells in response to allergens and viral infections. TSLP signals through an IL-7Rα/TSLPR heterodimer found in a broad range of tissues and cell types, including epithelial cells, endothelial cells, neutrophils, macrophages, and mast cells. […]
The potencies of the test compounds were measured for inhibition of TARC release. […]
Following stimulation, the cell culture supernatants were harvested and TARC levels were detected by enzyme-linked immunosorbent assay (ELISA), using Human CCL17/TARC Quantikine ELISA Kit (R&D Systems # DDN00) according to the manufacturer's instructions.
For dose response analysis, the log [test compound (M)] was plotted versus the percent response values for each donor, and IC50 values were determined using a nonlinear regression analysis with GraphPad Prism Software using the 4-parameter sigmoidal dose-response algorithm with variable slope. Data are expressed as mean pIC50 (negative decadic logarithm IC50) values calculated from pIC50 values of individual donors and rounded to one decimal place.

[2] = system: IL-2 stimulated STAT5 phosphorylation in Tall-1 human T cell line; experiment: Inhibition of IL-2 stimulated pSTAT5 in Tall-1 T cells; format: cell-based; details: TALL-1, read-out: Tall-1 pIC50 (converted)
Experimental: Assay 2: Inhibition of IL-2 Stimulated pSTAT5 in Tall-1 T Cells
The potency of test compounds for inhibition of interleukin-2 (IL-2) stimulated STAT5 phosphorylation was measured in the Tall-1 human T cell line (DSMZ) using AlphaLisa. Because IL-2 signals through JAK1/3, this assay provides a measure of JAK1/3 cellular potency.
Phosphorylated STAT5 was measured via the AlphaLISA SureFire Ultra pSTAT5 (Tyr694/699) kit (PerkinElmer).
Human T cells from the Tall-1 cell line were cultured in a 37° C., 5% CO2 humidified incubator in RPMI (Life Technologies) supplemented with 15% Heat Inactivated Fetal Bovine Serum (FBS, Life Technologies), 2 mM Glutamax (Life Technologies), 25 mM HEPES (Life Technologies) and 1×Pen/Strep (Life Technologies). […] Phosphorylated STAT5 was measured via the pSTAT5 AlphaLisa kit (PerkinElmer). […] Luminescence was measured with excitation at 689 nm and emission at 570 nm using an EnVision plate reader (PerkinElmer) under green filtered <100 lux light.
To determine the inhibitory potency of test compounds in response to IL-2, the average emission intensity of beads bound to pSTAT5 was measured in a human T cell line. IC50 values were determined from analysis of the inhibition curves of signal intensity versus compound concentration. Data are expressed as pIC50 (negative decadic logarithm IC50) values (mean±standard deviation).

CCc1cc(O)ccc1-c1ccc2c(-c3nc4c([nH]3)CN(C)[C@H](C(=O)N3CCN(C)C[C@@H]3C)C4)n[nH]c2c1 [Example 3, ((S)-2,4-dimethylpiperazin-1-yl)((S)-2-(6-(2-ethyl-4-hydroxyphenyl)-1H-indazol-3-yl)-5-methyl-4,5,6,7-tetrahydro-3H-imidazo[4,5-c]pyridin-6-yl)methanone]
IC50 [1]: 50.1 nM
IC50 [2]: 1.58 nM
